Data as given in paper PMC7398144 (The Journal of General Physiology, 2020).

Protein sequences, listed by entry. Tags and fused reporters are not part of them. Lines headed by an entry give the natural chain unless they say otherwise; changes in a name come on top.
UniProt P32240: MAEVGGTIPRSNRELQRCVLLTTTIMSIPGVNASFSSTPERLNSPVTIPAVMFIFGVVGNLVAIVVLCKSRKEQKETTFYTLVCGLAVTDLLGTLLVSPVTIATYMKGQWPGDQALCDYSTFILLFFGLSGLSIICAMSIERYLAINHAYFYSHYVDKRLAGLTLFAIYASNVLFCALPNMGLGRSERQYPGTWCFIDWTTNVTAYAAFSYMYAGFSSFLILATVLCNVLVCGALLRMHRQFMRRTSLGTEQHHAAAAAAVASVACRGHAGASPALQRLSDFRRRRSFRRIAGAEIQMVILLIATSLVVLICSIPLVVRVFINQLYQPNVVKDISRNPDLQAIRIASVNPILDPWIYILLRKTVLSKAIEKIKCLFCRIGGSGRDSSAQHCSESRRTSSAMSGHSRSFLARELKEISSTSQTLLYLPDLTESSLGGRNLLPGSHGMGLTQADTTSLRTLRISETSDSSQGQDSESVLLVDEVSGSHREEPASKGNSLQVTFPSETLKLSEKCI

Target: prostaglandin E receptor type 4 (EP4) (Mus musculus, UniProt P32240)
Test: amiloride-sensitive short-circuit current in mCCDcl1 cells
Assay type: cell-based

- EC50: ~7.1 nM
Compound: CCCCC[C@H](O)/C=C/[C@H]1[C@H](O)CC(=O)[C@@H]1C/C=C\CCCC(=O)O [PGE2]
